The values below come from ChEMBL document CHEMBL2385080, “Designing bifunctional NOP receptor-mu opioid receptor ligands from NOP receptor-selective scaffolds. Part I” (2013).

Test [1] addresses T1, Kappa-type opioid receptor (Homo sapiens, UniProt P41145). Kind of test: Agonist activity at human kappa opioid receptor transfected in CHO cells assessed as stimulation of [35S]GTPgammaS binding by liquid scintillation counting analysis. A general note: GTPγS is a poorly hydrolysed GTP analogue; its binding reports G protein activation.
For test [2], the target named is T2, Mu-type opioid receptor (Homo sapiens, UniProt P35372). Kind of test: Agonist activity at human mu opioid receptor transfected in CHO cells assessed as stimulation of [35S]GTPgammaS binding by liquid scintillation counting analysis.
Test [3] concerns the target T3, Nociceptin receptor (Homo sapiens, UniProt P41146). Nature of the test: Agonist activity at human nociceptin receptor transfected in CHO cells assessed as stimulation of [35S]GTPgammaS binding by liquid scintillation counting analysis.
Test [4] concerns the target T3, Nociceptin receptor. Nature of the test: Displacement of [3H] N/OFQ from human nociceptin receptor transfected in CHO cells.
Test [5] concerns the target T1, Kappa-type opioid receptor. Nature of the test: Displacement of [3H] U69593 from human kappa opioid receptor transfected in CHO cells.
The target of test [6] is T2, Mu-type opioid receptor. Kind of test: Displacement of [3H]DAMGO from human mu opioid receptor transfected in CHO cells. Background: Displacement assays read how much labelled ligand stays bound in the presence of the test substance.

With `O=C1Cc2ccccc2N1C1CCN(Cc2ccccc2)CC1`, the EC50 in test [1] is under 10000 nM; at Mu-type opioid receptor [2], 1980 nM.

For `O=C1Cc2ccccc2N1C1CCN(C2CC[C@H]3CCCc4cccc2c43)CC1` (stereo not given in full), the EC50 on Nociceptin receptor [3] was 46.1 nM; in test [1], under 10000 nM; on Mu-type opioid receptor [2], 129 nM. Further, the Ki at Nociceptin receptor [4] worked out at 11.4 nM; in test [5], 681 nM; on Mu-type opioid receptor [6], 79.9 nM.

Turning to `O=C1CCc2ccccc2N1C1CCN(C2CCCCCCC2)CC1`, the figures for the EC50 (on Nociceptin receptor [3]; in test [1]) were 101 nM and under 10000 nM, respectively. The figures for the Ki (at Nociceptin receptor [4]; in test [5]; on Mu-type opioid receptor [6]) were 18.7 nM, 37.9 nM and 47 nM, respectively.

Take `O=C1Cc2ccccc2N1C1CCN(CC2CCCCC2)CC1`: the inhibition constant (Ki) at Nociceptin receptor [4] was determined as 213 nM; on Mu-type opioid receptor [6] it was 533 nM.

In general, EC50 refers to the midpoint of the concentration-response curve. One may read the Ki as a measure of affinity in units of concentration, obtained from inhibition or displacement.
